Read-outs that look alike come from different tables or passages of the source.
Key:
[1] = tested on: rat; experiment: Randall Selitto test in rats (Carrageenin-induced inflammatory pain); assay type: in vivo
[2] = tested on: male albino rats (Sprague Dawley)

SMILES: CN(C)[C@]1(c2ccccc2)CC[C@]2(CC1)OCCc1c3cc(F)ccc3[nH]c12
- timepoint of peak effect p. appl. ([1]; applied alone, first ingredient i.v., second ingredient i.p.): 15 min
- ED50 (95% CI), applied alone ([1]; i.v., 15 min p. appl. (peak effect)): 3.31 (3.06-3.56) μg/kg
- % MPE (Maximum possible effect), single administration ([2]; 0.0046 mg/kg i.v., 30 min. post administration): 12.2 ± 2.69 % MPE
- % MPE (Maximum possible effect), single administration ([2]; 0.0046 mg/kg i.v., 60 min. post administration): 10.6 ± 3.51 % MPE
- % MPE (Maximum possible effect), single administration ([2]; 0.0046 mg/kg i.v., 90 min. post administration): 2.88 ± 2.27 % MPE
- % MPE (Maximum possible effect), single administration ([2]; 0.0068 mg/kg i.v., 30 min. post administration): 26.0 ± 5.35 % MPE
- % MPE (Maximum possible effect), single administration ([2]; 0.0068 mg/kg i.v., 60 min. post administration): 12.2 ± 2.56 % MPE
- % MPE (Maximum possible effect), single administration ([2]; 0.0068 mg/kg i.v., 90 min. post administration): 4.64 ± 1.14 % MPE
- % MPE (Maximum possible effect), single administration ([2]; 0.01 mg/kg i.v., 30 min. post administration): 43.2 ± 2.61 % MPE
- % MPE (Maximum possible effect), single administration ([2]; 0.01 mg/kg i.v., 60 min. post administration): 34.1 ± 4.88 % MPE
- % MPE (Maximum possible effect), single administration ([2]; 0.01 mg/kg i.v., 90 min. post administration): 7.7 ± 2.23 % MPE
